Assay: excess molar enthalpy (molar enthalpy of mixing); xn = mol fraction of the nth substance listed
Settings: 101 kPa, Liquid, Flow calorimetry

CCCCOCCCC [dibutyl ether] + Cc1ccccc1
excess molar enthalpy [kcal/mol]
Settings | 298.15 K | 313.15 K
x1 = 0.0497 | 0.00571 | –
x1 = 0.0503 | – | 0.00535
x1 = 0.0995 | – | 0.00966
x1 = 0.1003 | 0.0101 | –
x1 = 0.1501 | – | 0.0134
x1 = 0.1502 | 0.0134 | –
x1 = 0.1999 | 0.016 | –
x1 = 0.2006 | – | 0.0159
x1 = 0.2499 | 0.0177 | –
x1 = 0.2505 | – | 0.0178
x1 = 0.2997 | – | 0.0191
x1 = 0.2999 | 0.019 | –
x1 = 0.3497 | – | 0.0199
x1 = 0.3499 | 0.0196 | –
x1 = 0.3995 | 0.0197 | –
x1 = 0.4004 | – | 0.0202
x1 = 0.4495 | – | 0.0201
x1 = 0.4497 | 0.0194 | –
x1 = 0.499 | – | 0.0194
x1 = 0.5002 | 0.0187 | –
x1 = 0.5485 | – | 0.0186
x1 = 0.5498 | 0.0179 | –
x1 = 0.5995 | 0.0166 | –
x1 = 0.6005 | – | 0.0174
x1 = 0.6501 | – | 0.0159
x1 = 0.6502 | 0.0151 | –
x1 = 0.6994 | 0.0135 | 0.0141
x1 = 0.7495 | 0.0115 | –
x1 = 0.7508 | – | 0.0121
x1 = 0.799 | 0.00949 | 0.01
x1 = 0.8492 | 0.00717 | 0.00758
x1 = 0.8985 | – | 0.00521
x1 = 0.9 | 0.00478 | –
x1 = 0.9498 | 0.00239 | 0.00232

CCCCOCCCC [dibutyl ether] + C1CCCCC1
313.15 K
Settings | excess molar enthalpy [kcal/mol]
x1 = 0.0498 | 0.0176
x1 = 0.0997 | 0.0309
x1 = 0.1502 | 0.0409
x1 = 0.2003 | 0.0486
x1 = 0.2498 | 0.0537
x1 = 0.3001 | 0.0573
x1 = 0.3502 | 0.059
x1 = 0.3999 | 0.0597
x1 = 0.4499 | 0.0591
x1 = 0.4992 | 0.0577
x1 = 0.5497 | 0.0549
x1 = 0.6002 | 0.0518
x1 = 0.6493 | 0.0474
x1 = 0.6993 | 0.0425
x1 = 0.7502 | 0.0367
x1 = 0.7991 | 0.0299
x1 = 0.85 | 0.0234
x1 = 0.9001 | 0.0158
x1 = 0.9506 | 0.00782

CCCCOCCCC [dibutyl ether] + CC(C)CC(C)(C)C
313.15 K
Settings | excess molar enthalpy [kcal/mol]
x1 = 0.0497 | 0.00626
x1 = 0.0996 | 0.0118
x1 = 0.1496 | 0.016
x1 = 0.1998 | 0.0197
x1 = 0.2501 | 0.0228
x1 = 0.2995 | 0.0253
x1 = 0.35 | 0.0271
x1 = 0.3997 | 0.0283
x1 = 0.4495 | 0.0288
x1 = 0.4994 | 0.029
x1 = 0.5495 | 0.0284
x1 = 0.5996 | 0.0274
x1 = 0.6499 | 0.0259
x1 = 0.6993 | 0.0237
x1 = 0.7499 | 0.021
x1 = 0.7996 | 0.0178
x1 = 0.8495 | 0.0141
x1 = 0.8995 | 0.00985
x1 = 0.9497 | 0.00516

Reference: the NIST ThermoML archive (doi:10.1016/j.fluid.2011.11.005)
